According to patent US20140243227A1, “CULTURE MEDIA FOR STEM CELLS” (Koninklijke Nederlandse Akademie van Wetenschappen, priority 2011, published 2014):

Tested on: human colon crypts
Test: Screening of reagents for optimization of human intestinal organoids culture (plating efficiency)
Type: cell-based

`CC1=C2C[C@H]3[C@@H](CC=C4C[C@@H](O)CC[C@@]43C)[C@@H]2CC[C@]12O[C@@H]1C[C@H](C)CN[C@H]1[C@H]2C` [Cyclopamine] was tested, and the “Activity (plating efficiency compared with control after 4 days culture)” value was 1− (key: 0 = no change; 1+ = <50% increase; 2+ = 50-100% increase; 3+ = >100% increase; 1− = 0-50%; 2− = 50-100% decrease; 3− = >100% decrease).
